Tests used:
DR3 = DR3 (Homo sapiens, UniProt P01903+P01911, A100K/A102G/A103R/A169T/F55Y/I96L/K41T/L162R/M171V/P40S/Q125H/Q178H/Q39Y/R42S/S66N/T106N/T262R/W38E/Y61H); experiment: biochemical; conditions: PADRE Class II Binding Affinities DR3, Table IX
DR7 = conditions: read-out: PADRE Class II Binding Affinities DR7; Table IX; listed as 965.032

By UniProt entry, the sequences of proteins in these tests, tags left out. Where a name states a change or a piece, a line headed by the entry shows the natural chain unless it says otherwise. Residues count along the entry.
UniProt P01903, 26-254: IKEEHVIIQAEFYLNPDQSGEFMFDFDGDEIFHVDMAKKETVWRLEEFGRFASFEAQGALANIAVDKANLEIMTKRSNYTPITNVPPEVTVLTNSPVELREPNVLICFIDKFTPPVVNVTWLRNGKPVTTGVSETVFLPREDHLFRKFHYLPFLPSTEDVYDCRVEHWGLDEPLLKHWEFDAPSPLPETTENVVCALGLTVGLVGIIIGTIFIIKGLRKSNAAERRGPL
UniProt P01911, 30-266 with the stated changes: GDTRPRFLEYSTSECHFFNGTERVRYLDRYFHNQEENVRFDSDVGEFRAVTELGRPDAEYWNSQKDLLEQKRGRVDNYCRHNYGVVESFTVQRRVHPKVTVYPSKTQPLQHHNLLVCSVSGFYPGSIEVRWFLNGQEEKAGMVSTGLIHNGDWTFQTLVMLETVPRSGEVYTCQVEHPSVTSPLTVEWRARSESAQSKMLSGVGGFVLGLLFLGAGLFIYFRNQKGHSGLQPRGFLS

| SMILES | IC50 (DR3) [µM] | IC50 (DR7) [µM] |
| --- | --- | --- |
| CC(C)C[C@H](NC(=O)[C@@H](NC(=O)[C@H](CC(N)=O)NC(=O)[C@H](C)NC(=O)[C@H](CCCNC(=N)N)NC(=O)[C@@H](NC(=O)[C@H](CC1CCCCC1)NC(=O)[C@H](CCCNC(=N)N)NC(=O)[C@@H](C)N)C(C)C)[C@@H](C)O)C(=O)N[C@@H](CCCCN)C(=O)N[C@@H](C)C(=O)N[C@@H](C)C(=O)N[C@H](C)C(N)=O [Peptide 965.06] | 8.33 |  |
| CC(C)C[C@H](NC(=O)[C@@H](NC(=O)[C@H](CC(N)=O)NC(=O)[C@H](C)NC(=O)[C@H](Cc1c[nH]c2ccccc12)NC(=O)[C@@H](NC(=O)[C@H](CC1CCCCC1)NC(=O)[C@H](CCCCN)NC(=O)[C@@H](C)N)C(C)C)[C@@H](C)O)C(=O)N[C@@H](CCCCN)C(=O)N[C@@H](C)C(=O)N[C@@H](C)C(=O)N[C@H](C)C(N)=O [Peptide 965.031] |  | 0.347 |

From patent publication US6413935B1, “Induction of immune response against desired determinants” (priority 1993, dated 2002)
